## Measured affinities in a library of Ab-95 light chain variants

Target: peptide PDVDLGDISGINAS, taken from heptad repeat 2 (HR2) of SARS-CoV-2 spike.

The variants keep the heavy chain, the linker and the frameworks of Ab-95 (scFv order VH, a 15-residue (Gly4Ser)3 linker, VL).
VH: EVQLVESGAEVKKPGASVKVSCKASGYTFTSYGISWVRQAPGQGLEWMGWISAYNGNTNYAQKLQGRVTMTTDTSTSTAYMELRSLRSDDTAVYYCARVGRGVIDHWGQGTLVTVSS
VL: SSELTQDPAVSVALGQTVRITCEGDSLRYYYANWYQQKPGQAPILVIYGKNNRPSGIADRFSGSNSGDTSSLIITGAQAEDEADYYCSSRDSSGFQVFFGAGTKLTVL

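Phage display of a naive human antibody library on the peptide gave the parent. The library (AAYL52) carries one to three amino acid substitutions per variant, with no insertions or deletions. In AlphaSeq, yeast of one mating type display the scFv and yeast of the other type display the target. Binding brings cells together so that they mate, and sequencing counts the barcode pairs among the diploids. A regression on co-assayed BCL2-family reference pairs converts the normalised counts of each replicate to an apparent Kd. The assay was run in three technical replicates.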

The parent's light chain CDRs are EGDSLRYYYAN, GKNNRPS, SSRDSSGFQVF; each variant's own CDRs replace them letter for letter.
Values are log10 of the apparent Kd in nM; lower means stronger binding.
Averages over replicates are reported, and they cover detected replicates only.
"no signal" means that the variant was in the library but no mating with the target was seen in any replicate; the authors take this as a sign of poor binding, and no number exists.
Three control strains display no target. For library AAYL52, 28% of the pairings with them gave a signal, with a median of 3.91 and one signal in twenty below 2.90, so weak values seen in few replicates may be background.

{"CDR-L1": "EGDSLRYYYAN", "CDR-L2": "GKNNNPM", "CDR-L3": "SSRDSSGFDVF", "mean log10 Kd (nM)": "3.93", "replicates with signal": "3/3"}
{"CDR-L1": "EIDSLRYYYAN", "CDR-L2": "GKNNRPS", "CDR-L3": "SSRDSKGFRVF", "mean log10 Kd (nM)": "no signal", "replicates with signal": "0/3"}
{"CDR-L1": "VGDSLRYYYAN", "CDR-L2": "GKNNRPS", "CDR-L3": "SSRLSSGFCVF", "mean log10 Kd (nM)": "3.32", "replicates with signal": "2/3"}
{"CDR-L1": "EGDSLRYCYAN", "CDR-L2": "GKNNRPS", "CDR-L3": "SSRDLSGFQVL", "mean log10 Kd (nM)": "2.37", "replicates with signal": "3/3"}
{"CDR-L1": "EGDSLFYYYAN", "CDR-L2": "LKNNRPS", "CDR-L3": "SARDSSGFQVF", "mean log10 Kd (nM)": "no signal", "replicates with signal": "0/3"}
{"CDR-L1": "EGDFLRYYMAN", "CDR-L2": "GKNNRPN", "CDR-L3": "SSRDSSGFQVF", "mean log10 Kd (nM)": "3.46", "replicates with signal": "3/3"}
{"CDR-L1": "EQDKLRYYEAN", "CDR-L2": "GKNNRPS", "CDR-L3": "SSRDSSGFQVF", "mean log10 Kd (nM)": "2.70", "replicates with signal": "3/3"}
{"CDR-L1": "EGDSLRYYYAM", "CDR-L2": "GMGNRPS", "CDR-L3": "SSRDSSGFQVF", "mean log10 Kd (nM)": "no signal", "replicates with signal": "0/3"}
{"CDR-L1": "ETDSLRYYYAN", "CDR-L2": "GKNIWPS", "CDR-L3": "SSRDSSGFQVF", "mean log10 Kd (nM)": "5.21", "replicates with signal": "1/3"}
{"CDR-L1": "EGDSLRYYYAN", "CDR-L2": "GKNTRPS", "CDR-L3": "SSRDSCGFQVA", "mean log10 Kd (nM)": "5.59", "replicates with signal": "1/3"}
{"CDR-L1": "EGDSLVYYYAN", "CDR-L2": "DKNNRPS", "CDR-L3": "SSRDSSGFQVF", "mean log10 Kd (nM)": "3.20", "replicates with signal": "3/3"}
{"CDR-L1": "EQDSLRYYYAN", "CDR-L2": "GKNNRPS", "CDR-L3": "SVRDESGFQVF", "mean log10 Kd (nM)": "3.23", "replicates with signal": "3/3"}
{"CDR-L1": "EPDSLRYYYAN", "CDR-L2": "GKNNRPS", "CDR-L3": "SSRPFSGFQVF", "mean log10 Kd (nM)": "3.92", "replicates with signal": "1/3"}
{"CDR-L1": "EGDSLRYYYAN", "CDR-L2": "GNNNRPS", "CDR-L3": "SSRDSSGFQLF", "mean log10 Kd (nM)": "2.13", "replicates with signal": "3/3"}
{"CDR-L1": "EGDSLRYYYAN", "CDR-L2": "GKPNRPS", "CDR-L3": "SSFDSYGFQVF", "mean log10 Kd (nM)": "3.87", "replicates with signal": "2/3"}
{"CDR-L1": "EGDSLRQYYAN", "CDR-L2": "GKNWFPS", "CDR-L3": "SSRDSSGFQVF", "mean log10 Kd (nM)": "no signal", "replicates with signal": "0/3"}
{"CDR-L1": "EGDSLRYYYAN", "CDR-L2": "GKANRPQ", "CDR-L3": "SSRDSSGFQNF", "mean log10 Kd (nM)": "2.89", "replicates with signal": "3/3"}
{"CDR-L1": "EGDSLHYYHAN", "CDR-L2": "GKNNRPS", "CDR-L3": "SSRSSSGFQVF", "mean log10 Kd (nM)": "1.94", "replicates with signal": "3/3"}
{"CDR-L1": "EGDSLRYYYAN", "CDR-L2": "GKLYRPS", "CDR-L3": "SSRDQSGFQVF", "mean log10 Kd (nM)": "3.65", "replicates with signal": "2/3"}
{"CDR-L1": "EGDSLRYYYAN", "CDR-L2": "GKNNAPS", "CDR-L3": "SSRDHSIFQVF", "mean log10 Kd (nM)": "3.78", "replicates with signal": "2/3"}
{"CDR-L1": "EGDSNRYYYAN", "CDR-L2": "GRNNRPS", "CDR-L3": "SSRDSSGFQVF", "mean log10 Kd (nM)": "2.89", "replicates with signal": "3/3"}
{"CDR-L1": "EGDFLRYYYAN", "CDR-L2": "GKNNRPS", "CDR-L3": "SFRYSSGFQVF", "mean log10 Kd (nM)": "4.60", "replicates with signal": "1/3"}
{"CDR-L1": "EGDSLRYYYGH", "CDR-L2": "GKNNRPS", "CDR-L3": "SSRDSHGFQVF", "mean log10 Kd (nM)": "4.53", "replicates with signal": "3/3"}
{"CDR-L1": "EGDSLRYYYAN", "CDR-L2": "GKNNRPS", "CDR-L3": "SRRDSRGFQVF", "mean log10 Kd (nM)": "3.09", "replicates with signal": "3/3"}
{"CDR-L1": "AGDSLRRYYAN", "CDR-L2": "GKNSRPS", "CDR-L3": "SSRDSSGFQVF", "mean log10 Kd (nM)": "2.46", "replicates with signal": "3/3"}

Reference: Engelhart et al. 2022, doi:10.1038/s41597-022-01779-4. File: FLAb, binding data.